This note sets out measurements from patent US20190209539A1, “THIOHYDANTOIN ANDROGEN RECEPTOR ANTAGONISTS FOR THE TREATMENT OF CANCER” (Janssen Pharmaceutica NV, priority 2016, published 2019).

By UniProt entry, the sequences of proteins in these tests, tags left out.
UniProt P10275, whole entry T878A: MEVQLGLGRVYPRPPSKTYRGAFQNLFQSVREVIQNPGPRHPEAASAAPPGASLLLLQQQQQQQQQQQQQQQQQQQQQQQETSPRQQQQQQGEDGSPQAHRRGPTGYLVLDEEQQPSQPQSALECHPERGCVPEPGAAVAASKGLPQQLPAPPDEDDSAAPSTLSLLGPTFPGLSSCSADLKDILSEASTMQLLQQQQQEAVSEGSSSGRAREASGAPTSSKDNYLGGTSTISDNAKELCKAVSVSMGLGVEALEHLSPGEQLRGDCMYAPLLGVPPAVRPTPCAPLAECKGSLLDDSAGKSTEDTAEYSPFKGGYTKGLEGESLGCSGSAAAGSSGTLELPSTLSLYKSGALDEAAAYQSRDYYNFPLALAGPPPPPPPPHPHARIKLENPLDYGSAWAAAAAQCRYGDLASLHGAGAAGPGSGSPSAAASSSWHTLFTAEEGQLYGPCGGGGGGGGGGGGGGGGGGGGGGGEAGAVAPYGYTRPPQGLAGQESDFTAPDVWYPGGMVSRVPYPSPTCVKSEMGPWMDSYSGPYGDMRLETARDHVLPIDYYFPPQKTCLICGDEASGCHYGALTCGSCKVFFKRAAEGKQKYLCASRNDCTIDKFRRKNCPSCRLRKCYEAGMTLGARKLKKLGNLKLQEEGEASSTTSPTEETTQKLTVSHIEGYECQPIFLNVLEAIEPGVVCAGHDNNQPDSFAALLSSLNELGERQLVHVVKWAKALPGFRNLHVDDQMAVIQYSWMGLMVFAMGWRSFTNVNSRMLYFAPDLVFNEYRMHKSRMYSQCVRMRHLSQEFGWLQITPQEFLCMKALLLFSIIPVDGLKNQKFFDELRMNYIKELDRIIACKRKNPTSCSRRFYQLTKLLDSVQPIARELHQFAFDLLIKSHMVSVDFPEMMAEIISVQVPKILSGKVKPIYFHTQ

pIC50, pKi: −log10 of the molar value.

Experiment [1] deals with T1, wild-type Androgen Receptor (AR-wt) (Homo sapiens, UniProt P10275).
T1 construct: expressed in transfected cells; host or cells: LNCaP AR (cs) cells with ARE firefly luciferase lentiviral construct
The experiment can be described thus: LNCaP-AR-wt AG: ARE luciferase reporter assay, agonist mode. The experiment is classed as cell-based. As to conditions: maximum % stimulation (agonist response), % of 1 μM R-1881 max. (In general: In a reporter assay the amount or activity of a reporter protein is the signal.)

Experiment [2] has as its target T2, AR (human) (Homo sapiens, UniProt P10275, T878A).
T2 construct: AR (human) (agonist radioligand) LNCaP cells (cytosol); endogenous in cells; host or cells: LNCaP cells (cytosol)
The experiment can be described thus: Radioligand binding to AR ([3H]methyltrienolone, LNCaP cells cytosol). On the procedure: Radioligand binding assays were performed with the cell extracts and ligands as detailed below. Complete methodology is contained within the cited publications. Kd values were determined by Non-Specific Incubation Detection Method.
AR (human) (agonist radioligand) LNCaP cells (cytosol)
[^3H]methyltrienolone 1 nM 0.8 nM mibolerone (1 μM) 24 h 4° C. Scintillation counting. Zava, D. T et al.(1979) Endocrinology, 104: 1007-1012.
The results are expressed as a percent of control specific binding measured specific binding *100 control specific binding and as a percent inhibition of control specific binding 100-(measured specific binding*100) control specific binding obtained in the presence of compoundn.
The IC50 values (concentration causing a half-maximal inhibition of control specific binding) and Hill coefficients (nH) were determined by non-linear regression analysis of the competition curves generated with mean replicate values using Hill equation curve fitting.
The inhibition constants (Ki) were calculated using the Cheng Prusoff equation:
wherein L=concentration of radioligand in the assay, and KD=affinity of the radioligand for the receptor. A scatchard plot is used to determine the KD.
Radioligand binding inhibition and affinity calculations were determined using [^3H]-methyltrienolone, [^3H]-dexamethasone and [^3H]-estradiol for AR, GR and ER, respectively. […]

On to `N#Cc1ncc(N2C(=O)C3(CCC3)N(c3ccc(O)cc3)C2=S)cc1C(F)(F)F` [Cpd 77, 5-[8-(4-hydroxyphenyl)-5-oxo-7-thioxo-6,8-diazaspiro[3.4]octan-6-yl]-3-(trifluoromethyl)pyridine-2-carbonitrile], for which, in experiment [1], the “LNCaP-AR-wt AG MAX % Stim” value is 0.8%.

As to `CN1CCC(Oc2ccc(N3C(=S)N(c4cnc(C#N)c(C(F)(F)F)c4)C(=O)C34CCC4)cc2)CC1` [Cpd 85, 5-[8-[4-[(1-methyl-4-piperidyl)oxy]phenyl]-5-oxo-7-thioxo-6,8-diazaspiro[3.4]octan-6-yl]-3-(trifluoromethyl)pyridine-2-carbonitrile], the pKi in experiment [2] (Cheng Prusoff, [3H]-methyltrienolone) is 8.08. The negative logarithm of the IC50 (pIC50) in experiment [2] ([3H]-methyltrienolone 1 nM, LNCaP cytosol) was 7.72.

In the case of `N#Cc1ncc(N2C(=O)C3(CCC3)N(c3ccc(N4CCNCC4)cc3)C2=S)cc1C(F)(F)F` [Cpd 8, 5-[5-oxo-8-(4-piperazin-1-ylphenyl)-7-thioxo-6,8-diazaspiro[3.4]octan-6-yl]-3-(trifluoromethyl)pyridine-2-carbonitrile], the “LNCaP-AR-wt AG MAX % Stim” value in experiment [1] was 0.2%.

Usually pKi stands for the negative decadic logarithm of the Ki, by convention in mol/L. Read a low pKi as a high Ki. Broadly, the pIC50 is −log10 of the IC50, conventionally taken in molar units.
